## Antibody variant affinities, Ab-95 light chain, assay 2

Data: MIT Lincoln Laboratory AlphaSeq set, Engelhart et al. 2022, doi:10.1038/s41597-022-01779-4, as distributed in FLAb.

Target: peptide PDVDLGDISGINAS, taken from heptad repeat 2 (HR2) of SARS-CoV-2 spike.

The variants keep the heavy chain, the linker and the frameworks of Ab-95 (scFv order VH, three GGGGS repeats, VL).
VH: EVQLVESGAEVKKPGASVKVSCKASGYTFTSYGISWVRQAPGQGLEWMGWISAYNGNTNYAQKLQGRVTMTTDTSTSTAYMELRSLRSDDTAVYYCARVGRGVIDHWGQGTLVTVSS
VL: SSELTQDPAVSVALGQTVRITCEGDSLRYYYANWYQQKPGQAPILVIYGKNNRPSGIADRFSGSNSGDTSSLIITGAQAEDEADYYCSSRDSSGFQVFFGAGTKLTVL

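The parent was found by panning a naive human phage display library on the peptide. In library AAYL52, one, two or three CDR residues were substituted; doubles and triples were drawn at random. The scFvs were displayed on barcoded MATa yeast, the peptide on MATalpha yeast. The frequency of each diploid, read from paired DNA barcodes, reflects how well the two displayed proteins bind. Each replicate has its own calibration line, from reference interactions of the BCL2 family. The assay was run in three technical replicates.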

Variants are written as CDR1, CDR2 and CDR3 of the light chain (limits as in the source). Parent: EGDSLRYYYAN, GKNNRPS, SSRDSSGFQVF.
Affinities are written as log10 Kd with Kd in nM; a lower number is a better binder.
An entry "ND" has no value in the source: the pair was not observed among the diploids in that replicate. This suggests poor binding but is not conclusive.
Nonspecific signal, from three strains lacking the peptide, appeared in 28% of pairings of library AAYL52, centred on 3.91 (5% of these signals below 2.90); values are not corrected for it. For each scFv, signals with the empty controls are counted beside the result, with their mean in brackets.
For reference, the parent read 2.31 as the reference entry and 2.25 as a member of this library.

CDR-L1	CDR-L2	CDR-L3	replicates, log10 nM	signal with controls
EGDILRYYYAN	GKNNRPS	SSRRSSGFQIF	ND 3.25 ND	1/9 (2.92)
EEDSLRKYYAN	WKNNRPS	SSRDSSGFQVF	4.79 ND ND	3/9 (3.27)
EGQSLRYLYAN	GKNNRPS	SSRDSSGFQVG	ND ND ND	1/9 (3.67)
EGDFLRYYYFN	GKNNRPS	SSRASSGFQVF	3.99 3.44 ND	3/9 (3.78)
EGDSRRYYYAL	GKDNRPS	SSRDSSGFQVF	4.70 ND 3.76	4/9 (3.71)
EGDSLRYYYAN	GKNNRPS	ESRDESGFQFF	3.78 3.58 3.25	4/9 (3.66)
EGDSLHYYYAN	GCNNRPS	SSRDSSGFQVF	2.69 2.59 2.51	3/9 (4.03)
EGDSLRYYYAN	HKNNRDF	SSRDSSGFQVF	ND 5.28 ND	4/9 (3.94)
EGDSLRYYYAN	GKNVRPT	SWRDSSGFQVF	3.28 ND 3.19	1/9 (3.92)
EKDSKRYFYAN	GKNNRPS	SSRDSSGFQVF	3.58 2.93 2.86	5/9 (4.38)
EGDSLRYYYAN	SKRNRPS	SSRDSNGFQVF	ND ND ND	0/9
EGDSLRYYYAA	GKNNRPS	SSRDSSGFQVD	3.50 3.54 ND	4/9 (4.02)
EGDSLRYYYAN	RKDNRPS	SSRDSSGFQDF	ND 5.49 4.33	1/9 (2.90)
EGDSLRYYYAN	NKNNRPS	PSRDSSGQQVF	ND ND ND	0/9
EGDSLEYYYAN	GKNNRPS	SSRDSHHFQVF	4.35 4.62 4.33	2/9 (3.78)
CGDSLAYYYAN	GKNNRPS	NSRDSSGFQVF	3.07 ND 2.83	2/9 (4.11)
EGDSLRYYYAN	GSNNRPS	SSRDSGGFQVF	3.98 2.94 3.99	5/9 (4.01)
EGDALRYYYAN	GCNNGPS	SSRDSSGFQVF	ND ND ND	1/9 (3.43)
EVDSLRYTYAN	FKNNRPS	SSRDSSGFQVF	ND ND ND	1/9 (3.73)
GEDSLRYYYAN	GTNNRPS	SSRDSSGFQVF	5.43 5.89 3.66	3/9 (2.97)
EGDSLRYYYAN	GKNNRPS	SSRSSSGCQVT	2.99 4.36 ND	0/9
FGDMLRYYYAN	GKNNRPS	VSRDSSGFQVF	2.83 ND 2.81	2/9 (4.06)
EPDSLRYYYAN	GQNNRVS	SSRDSSGFQVF	2.49 3.27 2.56	3/9 (4.96)
EGISLRYYYAN	GINNRPS	SFRDSSGFQVF	3.76 3.44 3.97	3/9 (3.88)
EGDSLRYYYAE	WKNNRSS	SSRDSSGFQVF	ND ND ND	1/9 (4.85)
EGDSLTYYYAN	GKNARPS	YSRDSSGFQVF	ND ND 4.35	2/9 (4.09)
NGDSLRYYYAN	GKNNRKS	SGRDSSGFQVF	2.08 ND 2.83	1/9 (3.40)
EGDKLRCYYAN	GKMNRPS	SSRDSSGFQVF	3.83 3.93 4.52	3/9 (4.05)
EGDSLRYQYAN	GKNNRPF	SSRDSSGFQVF	1.31 1.30 0.87	4/9 (4.37)
EGDSLRYYYAN	GKPNRPS	SSRDSPVFQVF	ND 4.35 4.19	2/9 (4.80)
RGDSLRYYYAN	GKNNRPS	SSRDPSGVQVF	2.47 2.37 2.07	7/9 (4.07)
EGDSLRYYYAN	GKNNRPS	HSRYSKGFQVF	ND ND ND	1/9 (4.12)
EGDSLRYYWAN	GKNIRPS	SSRDSSGFQVD	2.63 3.03 3.71	2/9 (4.10)
EGDSLRDYYAN	GKNNRPS	SSDDSSGFQVY	4.05 4.87 ND	2/9 (2.80)

From the list, the first 3 with no signal in any replicate:

CDR-L1	CDR-L2	CDR-L3	replicates, log10 nM	signal with controls
EGQSLRYLYAN	GKNNRPS	SSRDSSGFQVG	ND ND ND	1/9 (3.67)
EGDSLRYYYAN	SKRNRPS	SSRDSNGFQVF	ND ND ND	0/9
EGDSLRYYYAN	NKNNRPS	PSRDSSGQQVF	ND ND ND	0/9